Our source for the Ki values is US20080138291A1, “Sulfonamide Derivatives Having Carbonic Anhydrase Inhibiting Activity and their Use as Therapeutic and Diagnostic Agents” (UNION LIFE SCIENCES LTD., priority 2005, published 2008).

Sequences of proteins named here, by UniProt entry; tags and fusion partners are left off. Residues count along the entry.
UniProt O43570, 30-289 limits assumed: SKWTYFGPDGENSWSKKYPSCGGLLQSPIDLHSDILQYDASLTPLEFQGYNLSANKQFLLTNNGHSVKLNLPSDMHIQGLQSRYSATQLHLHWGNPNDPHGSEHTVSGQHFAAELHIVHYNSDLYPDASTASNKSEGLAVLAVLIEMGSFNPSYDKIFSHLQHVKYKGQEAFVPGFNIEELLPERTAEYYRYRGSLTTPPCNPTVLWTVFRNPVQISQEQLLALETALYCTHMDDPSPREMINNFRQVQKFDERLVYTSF
UniProt P00915, whole entry: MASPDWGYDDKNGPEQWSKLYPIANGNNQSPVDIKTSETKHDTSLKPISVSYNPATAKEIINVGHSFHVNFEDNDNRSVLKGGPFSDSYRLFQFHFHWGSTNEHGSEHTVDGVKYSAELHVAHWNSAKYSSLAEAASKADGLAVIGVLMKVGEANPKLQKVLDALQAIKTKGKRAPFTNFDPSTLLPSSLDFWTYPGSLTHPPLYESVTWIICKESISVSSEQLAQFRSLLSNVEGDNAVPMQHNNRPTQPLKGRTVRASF

Assay [1] addresses hCA XII (Homo sapiens, UniProt O43570).
In assay [2] the target is hCA I (Homo sapiens, UniProt P00915). Briefly: CA inhibition, CO2 hydration method, isozyme I. The class given is biochemical. The note with it: read-out: KI hCA I, Table 2, human cloned isozyme.
In assay [3] the target is hCA IX (Homo sapiens, UniProt Q16790). Briefly: CA inhibition, CO2 hydration method, isozyme IX (catalytic domain). It is filed as biochemical. The note with it: read-out: KI hCA IX, Table 2, catalytic domain of human cloned isozyme.
Assay [4] deals with hCA II (Homo sapiens, UniProt P00918). Briefly: CA inhibition, CO2 hydration method, isozyme II. To be noted: read-out: KI hCA II, Table 2, human cloned isozyme. The class given is biochemical.

For `NS(=O)(=O)c1ccc(NC(=O)Nc2ccc(-c3c4ccc(=O)cc-4oc4cc(O)ccc34)c(C(=O)O)c2)c(Br)c1`, the inhibition constant Ki (in general, a measure of affinity in units of concentration, obtained from inhibition or displacement) in assay [1] came out at 9 nM; in assay [2], 1300 nM; in assay [3], 20 nM; in assay [4] it was 41 nM.
